Active and inactive are the calls of the source. The rule behind the calls is not given here.
Assays:
[1] = biological target: T1, Prostaglandin G/H synthase 1 (Homo sapiens, UniProt P23219); experiment: Reversible inhibition of COX-1 in human THP1 cells assessed as inhibition of arachidonic acid-induced TXB2 formation at 100 uM incubated for 30 mins followed by compound washout measured 30 mins post arachidonic acid challenge by radioimmunoassay; assay type: cell-based; settings: THP-1
[2] = biological target: T1, Prostaglandin G/H synthase 1; experiment: Inhibition of COX-1 (unknown origin) in platelet rich plasma assessed as inhibition of collagen-induced platelet aggregation at 30 uM incubated for 5 mins prior to collagen challenge measured for 5 mins by aggregometric analysis relative to vehicle-treated control
[3] = biological target: T1, Prostaglandin G/H synthase 1; experiment: Inhibition of COX-1 in human washed platelet assessed as rightward shift in 10 uM arachidonic acid-induced TXB2 formation at 0.01 to 100 uM incubated for 25 mins prior to arachidonic acid challenge measured after 30 mins by radioimmunoassay
[4] = biological target: T1, Prostaglandin G/H synthase 1; experiment: Inhibition of COX-1 in human THP1 cells assessed as inhibition of arachidonic acid-induced TXB2 formation at 100 uM incubated for 30 mins prior to arachidonic acid challenge measured after 30 mins by radioimmunoassay relative to vehicle-treated control; assay type: cell-based; settings: THP-1
[5] = biological target: Prostaglandin G/H synthase 2 (Homo sapiens) (UniProt P35354); experiment: Reversible inhibition of COX-2 in human MDA-MB-231 cells assessed as inhibition of arachidonic acid-induced PGE2 formation at 100 uM incubated for 30 mins followed by compound washout measured 30 mins post arachidonic acid challenge by radioimmunoassay
[6] = biological target: COX-1/COX-2 (Homo sapiens) (UniProt P35354+P23219); experiment: Selectivity ratio of IC50 for COX-2 in human whole blood to COX-1 in human whole blood; assay type: tissue-based
[7] = biological target: T1, Prostaglandin G/H synthase 1; experiment: Inhibition of COX-1 (unknown origin) in platelet rich plasma assessed as inhibition of arachidonic acid-induced platelet aggregation at 30 uM incubated for 5 mins prior to arachidonic acid challenge measured for 5 mins by aggregometric analysis relative to vehicle-treated control
[8] = biological target: T1, Prostaglandin G/H synthase 1; experiment: Inhibition of COX-1 (unknown origin) in platelet rich plasma assessed as inhibition of arachidonic acid-induced platelet aggregation at 10 uM incubated for 5 mins prior to arachidonic acid challenge measured for 5 mins by aggregometric analysis relative to vehicle-treated control
[9] = biological target: Prostaglandin G/H synthase 2 (Homo sapiens) (UniProt P35354); experiment: Inhibition of COX-2 in human MDA-MB-231 cells assessed as inhibition of arachidonic acid-induced PGE2 formation at 100 uM incubated for 30 mins prior to arachidonic acid challenge measured after 30 mins by radioimmunoassay relative to vehicle-treated control

Chains of the proteins cited; added tags and fusions are not shown.
UniProt P23219, whole entry: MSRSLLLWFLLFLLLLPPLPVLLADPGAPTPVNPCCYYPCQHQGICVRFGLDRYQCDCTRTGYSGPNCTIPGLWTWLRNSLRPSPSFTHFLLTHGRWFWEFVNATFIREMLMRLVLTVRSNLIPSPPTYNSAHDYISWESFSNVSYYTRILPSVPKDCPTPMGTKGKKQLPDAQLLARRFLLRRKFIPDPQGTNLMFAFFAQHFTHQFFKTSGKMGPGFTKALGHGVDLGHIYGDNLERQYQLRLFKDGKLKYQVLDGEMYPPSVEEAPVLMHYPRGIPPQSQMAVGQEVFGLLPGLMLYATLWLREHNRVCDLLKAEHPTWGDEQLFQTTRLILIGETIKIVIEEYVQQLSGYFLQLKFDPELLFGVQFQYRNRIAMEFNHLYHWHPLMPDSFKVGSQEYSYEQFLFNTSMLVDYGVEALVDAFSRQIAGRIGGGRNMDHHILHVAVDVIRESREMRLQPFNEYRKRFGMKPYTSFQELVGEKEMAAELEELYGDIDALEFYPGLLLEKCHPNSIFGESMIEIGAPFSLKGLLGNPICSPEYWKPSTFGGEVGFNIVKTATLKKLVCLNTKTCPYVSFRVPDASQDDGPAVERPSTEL

inhibition [1]: Active
inhibition [2]: 64.6%
inhibition [3]: Active
inhibition [4]: > 90%
inhibition [5]: Active
Ratio IC50 [6]: > 200
inhibition [7]: 97%
inhibition [8]: inactive
inhibition [9]: 70%
SMILES: Cc1onc(-c2ccc(Cl)o2)c1-c1ccccc1

— ChEMBL document CHEMBL2380195 (J Med Chem, 2013)
